Results taken from PubChem BioAssay AID602261 (Sanford-Burnham Center for Chemical Genomics, 2012).
The entries are a selection whose mix differs from that of the whole data set. Active and inactive are the calls of the source.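 Rule for the calls: active = compounds whose normalised, plate-corrected inhibition of enzyme fluorescence in the single-dose primary screen is 50% or more; inactive = the rest.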

The chains behind the UniProt entries cited, without tags or fusion partners.
UniProt P49327, whole entry, looked up: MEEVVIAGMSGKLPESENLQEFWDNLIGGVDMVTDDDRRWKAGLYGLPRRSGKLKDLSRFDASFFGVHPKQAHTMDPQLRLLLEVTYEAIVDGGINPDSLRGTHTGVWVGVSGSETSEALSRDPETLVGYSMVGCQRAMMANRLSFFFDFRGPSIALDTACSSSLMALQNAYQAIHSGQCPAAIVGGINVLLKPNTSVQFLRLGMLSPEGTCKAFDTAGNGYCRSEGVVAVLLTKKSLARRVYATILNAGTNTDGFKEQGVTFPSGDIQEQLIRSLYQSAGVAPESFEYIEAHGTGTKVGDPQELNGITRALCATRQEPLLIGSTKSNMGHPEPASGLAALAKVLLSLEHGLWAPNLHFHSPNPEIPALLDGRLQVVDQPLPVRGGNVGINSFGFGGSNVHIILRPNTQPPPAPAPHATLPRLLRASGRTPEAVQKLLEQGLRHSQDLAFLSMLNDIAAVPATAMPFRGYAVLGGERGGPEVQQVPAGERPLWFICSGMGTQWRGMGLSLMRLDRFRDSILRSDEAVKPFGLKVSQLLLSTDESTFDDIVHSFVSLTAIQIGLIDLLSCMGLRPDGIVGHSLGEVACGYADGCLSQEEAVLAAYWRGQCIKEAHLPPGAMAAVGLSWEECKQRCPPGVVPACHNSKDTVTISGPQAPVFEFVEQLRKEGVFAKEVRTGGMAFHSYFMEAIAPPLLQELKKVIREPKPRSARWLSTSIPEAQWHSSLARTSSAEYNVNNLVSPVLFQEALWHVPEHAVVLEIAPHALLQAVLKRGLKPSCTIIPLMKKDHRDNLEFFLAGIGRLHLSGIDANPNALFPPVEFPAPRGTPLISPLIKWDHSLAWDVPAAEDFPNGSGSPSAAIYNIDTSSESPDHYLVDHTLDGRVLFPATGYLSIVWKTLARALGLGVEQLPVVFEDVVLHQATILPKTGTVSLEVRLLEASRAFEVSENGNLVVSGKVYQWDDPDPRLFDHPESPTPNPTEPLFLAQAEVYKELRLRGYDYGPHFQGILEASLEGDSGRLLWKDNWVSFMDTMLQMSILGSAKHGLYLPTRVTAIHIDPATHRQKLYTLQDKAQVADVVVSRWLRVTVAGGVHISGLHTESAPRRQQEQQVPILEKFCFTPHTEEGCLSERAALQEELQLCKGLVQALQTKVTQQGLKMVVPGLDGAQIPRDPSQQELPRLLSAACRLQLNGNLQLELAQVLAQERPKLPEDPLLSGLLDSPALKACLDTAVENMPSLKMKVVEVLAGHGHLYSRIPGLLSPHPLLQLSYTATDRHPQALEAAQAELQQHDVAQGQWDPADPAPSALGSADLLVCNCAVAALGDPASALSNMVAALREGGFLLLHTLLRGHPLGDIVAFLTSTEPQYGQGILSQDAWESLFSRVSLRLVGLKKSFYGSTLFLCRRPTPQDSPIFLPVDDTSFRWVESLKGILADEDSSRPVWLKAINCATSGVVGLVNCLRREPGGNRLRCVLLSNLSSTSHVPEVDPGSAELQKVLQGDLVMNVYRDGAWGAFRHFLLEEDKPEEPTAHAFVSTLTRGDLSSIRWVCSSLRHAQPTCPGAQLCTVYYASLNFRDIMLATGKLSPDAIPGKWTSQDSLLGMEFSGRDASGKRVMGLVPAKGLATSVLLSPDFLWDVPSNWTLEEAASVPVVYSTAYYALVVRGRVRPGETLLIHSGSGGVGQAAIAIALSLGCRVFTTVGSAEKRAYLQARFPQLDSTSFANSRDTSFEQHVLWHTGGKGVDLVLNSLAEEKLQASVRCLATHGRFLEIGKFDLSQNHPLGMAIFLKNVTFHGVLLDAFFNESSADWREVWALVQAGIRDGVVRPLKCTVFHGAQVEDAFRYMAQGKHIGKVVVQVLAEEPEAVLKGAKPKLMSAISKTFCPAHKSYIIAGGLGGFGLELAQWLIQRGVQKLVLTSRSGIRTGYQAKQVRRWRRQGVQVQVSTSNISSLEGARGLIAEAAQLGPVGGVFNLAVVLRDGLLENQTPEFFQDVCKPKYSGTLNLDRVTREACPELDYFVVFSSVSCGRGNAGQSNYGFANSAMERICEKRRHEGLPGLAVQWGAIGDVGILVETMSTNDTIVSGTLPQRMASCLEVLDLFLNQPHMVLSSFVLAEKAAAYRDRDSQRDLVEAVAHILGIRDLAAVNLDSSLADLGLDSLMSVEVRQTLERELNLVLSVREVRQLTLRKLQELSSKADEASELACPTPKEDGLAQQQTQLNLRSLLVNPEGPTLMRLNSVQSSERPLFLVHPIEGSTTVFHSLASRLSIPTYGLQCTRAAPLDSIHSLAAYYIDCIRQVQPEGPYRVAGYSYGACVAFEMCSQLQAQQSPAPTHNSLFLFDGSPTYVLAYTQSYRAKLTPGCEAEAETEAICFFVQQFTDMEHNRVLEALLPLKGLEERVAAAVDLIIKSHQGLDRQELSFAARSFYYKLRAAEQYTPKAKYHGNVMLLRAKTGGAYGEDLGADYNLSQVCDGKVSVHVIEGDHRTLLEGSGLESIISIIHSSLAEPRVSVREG

Target: Fatty acid synthase (Homo sapiens) (UniProt P49327)
Assay: inhibition of human FAS-TE enzyme activity – biochemical, fluorescence intensity, uHTS, primary screen (AID 602261);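 note: 0% = DMSO with enzyme and 100% = substrate without enzyme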
Settings: recombinant FAS-TE, OMFH fluorogenic substrate, fluorescence endpoint; at 15 µM; hits give high values

SMILES	inhibition
O=c1c2cc([N+](=O)[O-])ccc2[nH]c2c([N+](=O)[O-])cc([N+](=O)[O-])cc12	inactive: -5.3%
CN(C)C(=O)Oc1noc2ccccc12	inactive: -8.5%
O=P1(Nc2nc3ccc(Cl)cc3s2)COc2ccccc2O1 (configuration not stated)	inactive: -5.7%
CCOc1ccc(C2=NCC(CBr)S2)cc1 (configuration not stated)	inactive: -2.8%
CCc1cc(O)c([N+](=O)[O-])c(C)c1[N+](=O)[O-]	inactive: -3.1%
CC(C)(C)C(=O)NC(Sc1ccccc1)C(Cl)(Cl)Cl (configuration not stated)	inactive: 7.6%
CC(=O)c1ccc(N2CC2c2ccncc2)cc1 (configuration not stated)	inactive: -4.1%
N#C/C(=C\c1ccc(N(CCBr)CCBr)cc1)C(N)=O	inactive: 0.8%
COC(=O)C1(C)COP(=O)(NCc2ccccc2)OC1 (configuration not stated)	inactive: -5.5%
Cc1ccccc1CN(C)C(=O)COC(=O)C(O)(c1ccccc1)c1ccccc1	inactive: 2.1%
C[C@H]1OP(=O)(Oc2ccccc2)C[C@@H]2O[C@@H]21 (some centres not stated)	inactive: -9.5%
C[C@@H]1C=CCP(=O)(Oc2ccccc2)O1 (some centres not stated)	inactive: -5.6%
CC(=O)Nc1ccc([As](=O)(O)O)c(O)c1	inactive: -6.2%
CC(=O)Nc1ccc(Oc2c([N+](=O)[O-])cc([N+](=O)[O-])cc2[N+](=O)[O-])cc1	inactive: -3.7%
NC(=O)c1cc([N+](=O)[O-])cc([N+](=O)[O-])c1N	inactive: -6.4%
CN(C(=O)Cc1ccc(Cl)c(Cl)c1)[C@H]1CCCC[C@H]1N1CCCC1	inactive: -1.8%
Cc1ccc(N/C(=N/P(=O)(N2CCOCC2)N2CCOCC2)N2CCOCC2)cc1	inactive: 0.9%
COc1ccccc1OP(=O)(Nc1ccc(C)cn1)Oc1ccccc1OC	inactive: -7.8%
Cc1ccc(OP(=O)(Nc2nccs2)Oc2ccc(C)cc2)cc1	inactive: 1.9%
CN1CCCC(OC(=O)C(c2ccccc2)c2ccccc2)C1 (configuration not stated)	inactive: -4.4%
Clc1ccc(Cl)c(NC2=NCC(CBr)S2)c1 (configuration not stated)	inactive: 4.3%
Nc1cc(N)c2nonc2c1[N+](=O)[O-]	inactive: -5.5%
CC(C)CC(=O)NC(Sc1ccc(Cl)cc1)C(Cl)(Cl)Cl (configuration not stated)	inactive: 4.1%
Oc1ccccc1CNc1ccccn1	inactive: -3.2%
O=C(NC(Sc1ccncn1)C(Cl)(Cl)Cl)c1ccccc1 (configuration not stated)	inactive: -9.9%
O=[N+]([O-])C1C(O)C(O)C([N+](=O)[O-])C(O)C1O (configuration not stated)	inactive: -2.5%

SMILES	inhibition
CC(=O)Nc1ccc([As](=O)(O)O)cc1	inactive: -1.1%
O=C(O)c1ccccc1[As](=O)(O)O	inactive: 48.6%
CCCC1OP(N)(=O)OCC1CC (configuration not stated)	inactive: -8.9%
O=P(Nc1nc2ccc(Cl)cc2s1)(c1ccccc1)c1ccccc1	inactive: 12.9%
CN(C)P(=O)(N(C)C)n1c(Nc2ccccc2)nnc1-c1ccccc1	inactive: 9.7%
Cc1cc(SC(NC(=O)c2ccc(F)cc2)C(Cl)(Cl)Cl)ncn1 (configuration not stated)	inactive: -5.4%
CCOP(=O)(Nc1ccccc1)OCC	inactive: -3.4%
CN(C(=O)Cc1ccc(Cl)c(Cl)c1)[C@H]1CCCC[C@@H]1N1CCCC1	inactive: 2.5%
Cc1ccc(NP(=O)(Oc2ccccc2F)Oc2ccccc2F)nc1	inactive: -0.1%
CCN(N=Nc1nonc1N)c1nonc1N	inactive: -4.5%
Nc1cccc2ccc([As](=O)(O)O)cc12	inactive: -1.4%
O=P1(N(CCCl)CCCl)OCCCS1 (configuration not stated)	inactive: -10.1%
O=C(Nc1cc([As](=O)(O)O)ccc1O)c1ccccc1	inactive: -6.4%
CC(C)(C)C(=O)NC(Sc1ccncn1)C(Cl)(Cl)Cl (configuration not stated)	inactive: -1.2%
O=[N+]([O-])c1ncn(CCn2ncnc2[N+](=O)[O-])n1	inactive: -3.8%
COC(=O)C1(C)COP(=O)(Nc2ccccc2)OC1 (configuration not stated)	inactive: -3.9%
O=[N+]([O-])c1cccc(NC2=NCC(CBr)S2)c1 (configuration not stated)	inactive: 9.9%
O=C(O)CNc1ccc([As](=O)(O)O)cc1	inactive: -9.5%
COc1ccc(C2=NCC(CBr)S2)cc1 (configuration not stated)	inactive: -2.6%
CC(=O)N1C2C3N(C(C)=O)C1C1N(C(C)=O)C(C(N1C(C)=O)N3C(C)=O)N2C(C)=O	inactive: -5.6%
O=[N+]([O-])c1cccc2n[nH]nc12	inactive: -5%
Cc1ccc(NP(=O)(Oc2ccccc2)Oc2ccccc2)nc1	inactive: 1.3%
O=[N+]([O-])c1cc([N+](=O)[O-])c(CCNc2ccccc2)c([N+](=O)[O-])c1	inactive: -168%
CCc1nc2c(n1)c1c(non1O)c1c2no[n+]1[O-]	inactive: 2.9%
Nc1ccc([As](=O)(O)c2ccc(N)cc2)cc1	inactive: -11.6%
C[N+]1=C2C=CC=CC=C2SC12C([N+](=O)[O-])=CC([N+](=O)[O-])=C[C-]2[N+](=O)[O-] (configuration not stated)	inactive: 6.3%

SMILES	inhibition
CCN(/C(=N/P(=O)(N1CCOCC1)N1CCOCC1)N1CCOCC1)c1ccc(OC)cc1	inactive: -2.6%
CC(C)c1nc(Nc2ccccc2)n(P(=O)(N(C)C)N(C)C)n1	inactive: -4.3%
CC(C)=N/N=C(\N)N[N+](=O)[O-]	inactive: -6.8%
CN(C)C(=O)OCCc1n(C)cc[n+]1C	inactive: -9.2%
CC1CCN(C(=O)Oc2c(Cl)cc(Cl)c3cccnc23)CC1	inactive: 7.4%
c1cc(-c2nn[nH]n2)ccc1-c1nn[nH]n1	inactive: -5.5%
COP1(=S)c2c(C)nn(CCC#N)c2N=C(c2ccc(F)cc2)N1C (configuration not stated)	inactive: -5.6%
COC(=O)C1(C)COP(=O)(N2CCCC2)OC1 (configuration not stated)	inactive: -1.4%
O=C(COc1ccccc1)OC1CN2CCC1CC2 (configuration not stated)	inactive: -3.9%
O=C(Nc1ccncc1[N+](=O)[O-])c1ccc([N+](=O)[O-])cc1[N+](=O)[O-]	inactive: -1.9%
O=C(O)C(=O)c1ccc(N(CCCl)CCCl)cc1	inactive: -7.5%
CCOC(=O)c1ccc(NC(=O)C(C)(CCl)SC)cc1 (configuration not stated)	inactive: -6.2%
O=C(OC1CN2CCC1CC2)c1cccc([N+](=O)[O-])c1 (configuration not stated)	inactive: -8.6%
CSc1ccc(Nc2c([N+](=O)[O-])cc([N+](=O)[O-])cc2[N+](=O)[O-])cc1	inactive: 10.7%
CCC(C)N(CC(C)C)C(=S)SC(NC(C)=O)C(Cl)(Cl)Cl (configuration not stated)	inactive: 15.3%
CC1CCNP(=O)(N(CCCl)CCCl)O1 (configuration not stated)	inactive: -3.7%
O=C(O)C(O)c1ccc(N(CCCl)CCCl)cc1 (configuration not stated)	inactive: -6.9%
CCOC(=O)Nc1ccc([As](=O)(O)O)c(O)c1	inactive: -5.2%
CCCCOc1ccc(C(=O)NCC2(N3CCCCC3)CCCCC2)cc1OC	inactive: -3.6%
Cc1cc(SC(NC(=O)c2ccccc2)C(Cl)(Cl)Cl)nc(C(C)C)n1 (configuration not stated)	inactive: -1.3%
COP(=O)(OC)N1CC1c1ccccc1 (configuration not stated)	inactive: -6.6%
CCOC(=O)Nc1cccc([As](=O)(O)O)c1	inactive: -0.4%
O=[N+]([O-])c1ccc(Nc2ccc(Oc3ccc([N+](=O)[O-])cc3[N+](=O)[O-])cc2)c([N+](=O)[O-])c1	inactive: 31.3%
Cc1cc(SC(NC=O)C(Cl)(Cl)Cl)ncn1 (configuration not stated)	inactive: -13.8%
O=P(Nc1ccccn1)(c1cccc2ccccc12)c1cccc2ccccc12	inactive: 4.9%
O=[As](O)(c1ccc(O)cc1)c1ccccc1O	inactive: -4.2%

SMILES	inhibition
C[As](=O)(O)c1cccc(C(=O)O)c1	inactive: -0.9%
O=[N+]([O-])c1ccc(-c2cc([N+](=O)[O-])c(O)c([N+](=O)[O-])c2)cc1	inactive: 44.4%
COc1cc(C(=O)NCC2(N3CCOCC3)CCCCC2)ccc1OCC(C)C	inactive: -1.7%
Cc1ccc2nc3c(c(C)c2c1)CC(C(Cl)Cl)S3 (configuration not stated)	inactive: 14.6%
Cc1ccc(OP(=O)(Nc2ccc([N+](=O)[O-])cn2)Oc2ccc(C)cc2)cc1	inactive: 15.5%
[N-]=[N+]=NC1CCCCC1NC(=O)c1cc([N+](=O)[O-])cc([N+](=O)[O-])c1 (configuration not stated)	inactive: 9.9%
COC(=O)C1(C)COP(=O)(N2CCCCCC2)OC1 (configuration not stated)	inactive: -10%
CC(C)c1ccc(OP(=O)(Nc2ccccn2)Oc2ccccc2F)cc1 (configuration not stated)	inactive: 23.3%
ClCCSc1nnc(-c2cccnc2)o1	inactive: -4.3%
CC(C)NC(=O)NP(=O)(Oc1ccccc1)Oc1ccccc1	inactive: -3%
O=C(OC1CN2CCC1CC2)c1cccc2[nH]cnc12 (configuration not stated)	inactive: -1.7%
CCN(CC)C(=S)SC(NC=O)C(Cl)(Cl)Cl (configuration not stated)	inactive: -5.7%
O=[N+]([O-])c1cc([N+](=O)[O-])c(-c2ccn[nH]2)s1	inactive: -12.2%
O=C(OC1CN2CCC1CC2)C12CC3CC(CC(C3)C1)C2 (configuration not stated)	inactive: -5.4%
Cc1cc(=O)[nH]c(N[N+](=O)[O-])n1	inactive: -9.7%
Cc1c2c(nc3ccccc13)SC(C(Cl)Cl)C2 (configuration not stated)	inactive: 19.4%
COc1ccc2nc(NP(=O)(c3ccccc3)c3ccccc3)sc2c1	inactive: -0.2%
COc1cc(I)ccc1[As](=O)(O)O	inactive: -2.3%
O=P1(N(CCCl)CCCl)OCCCN1CCCl (configuration not stated)	inactive: -9.3%
O=P1(N(CCCl)CCCl)Nc2ccccc2N1	inactive: -9%
COc1ccc(N/C(=N/P(=O)(N2CCOCC2)N2CCOCC2)N2CCOCC2)cc1	inactive: -5%
O=[N+]([O-])c1cc(Oc2ccc([N+](=O)[O-])cc2C(F)(F)F)cc([N+](=O)[O-])c1	inactive: 26.7%
O=[As](O)(O)c1cccnc1	inactive: -4.7%
COc1cc(C(=O)NCC2(N3CCOCC3)CCCCC2)cc(Cl)c1OC(C)C	inactive: 8.9%
